Assay results taken from publication PMC7064328, “Evaluation of Maternal, Embryo, and Placental Effects in CD-1 Mice following Gestational Exposure to Perfluorooctanoic Acid (PFOA) or Hexafluoropropylene Oxide Dimer Acid (HFPO-DA or GenX)” (Environmental Health Perspectives, 2020).

Key:
embryo–placenta unit = assay: Embryo/placental growth metrics (mixed-effect models); assay type: in vivo, mouse (CD-1)
Text: From each uterus, first, viable embryos and their matched placentas were collected in succession within a horn and immediately snap frozen ( n=2–5 per litter ), and subsequent embryos were collected for growth measurements ( n=2–11 per litter ). Additional placentas were collected and placed in 4% paraformaldehyde (PFA) for histological analysis (Block 2 only). Amniotic fluid was collected by needle aspiration from litters euthanized at E11.5 and snap frozen in liquid nitrogen. Embryo livers were collected from litters euthanized at E17.5 and snap frozen in liquid nitrogen. Dam livers were weighed, a portion of the left lateral lobe was placed in 4% PFA for histology, and another portion of the same lobe was snap frozen in liquid nitrogen. A third liver section was obtained from Block 2 dams and fixed in McDowell and Trump’s fixative for electron microscopy (EM). Gross lesions were collected when observed and placed in 4% PFA for histology. Dam kidneys were removed, a cross section was prepared from the right kidney, a longitudinal section was prepared from the left kidney, and both sections were fixed in 4% PFA for histological analysis.
Gross observations were recorded at necropsy. Embryo sex was determined by polymerase chain reaction (PCR) amplification of the Sry gene (forward, 5′-[…]-3′, and reverse, 3′-[…]-5′) using a snipped portion of tissue (TransnetYX®, Inc.). Embryos and their placentas were weighed separately as wet tissue. Images of embryos were obtained on a Leica Z16 APO imaging scope, and embryo length was measured as snout-to-rump distance using FIJI ([Schindelin et al. 2012]) and Zen 2 Blue (Zeiss).
Embryo and placental metrics were analyzed using mixed-effect models and included a priori fixed effects of treatment group and litter size and a random-effects term for the dam using the lme4 package. Embryo and placental metrics included embryo weight, embryo length, placental weight, and embryo:placenta weight ratios, a meaningful predictor of fetal birth outcomes in humans ([Hayward et al. 2016]). To account for potential introduction of random effects, the study block (Block 1 or Block 2) and experimenter handling of embryo/placental tissues (Experimenter A or Experimenter B) were included as additional random effects. Models were fit in a stepwise procedure for random effects, and final models included treatment group and litter size as fixed effects using the lmerTest package ([Kuznetsova et al. 2017]). All final models included dam as a random effect but were allowed to vary in the inclusion of experimenter and experimental block random effects based on likelihood ratio test results. Point estimates and 95% CIs were determined from the final model using the Wald method. The number of individual observations for each outcome (embryo weight, placenta weight, and embryo:placenta weight ratio) and the number of litters evaluated in the mixed-effect models are shown in Table S1.

[1] = Internal dosimetry of PFOA and GenX in maternal serum, maternal liver, amniotic fluid and whole embryos (UPLC-MS/MS); assay type: in vivo, mouse (CD-1)
Description: Maternal serum, maternal liver, amniotic fluid, and whole embryos were analyzed for PFOA and GenX concentrations using methods similar to those previously reported ([Conley et al. 2019]; [McCord et al. 2018]; [Reiner et al. 2009]; [Rushing et al. 2017]). Solid tissues were homogenized in RODI water at a ratio of approximately 1:3 tissue mass (milligrams) to liquid volume (microliters). Maternal serum, amniotic fluid, and tissue homogenates ( 25μL ) were spiked with internal standard suspended in 0.1M formic acid in a denaturation step, followed by a subsequent protein crash using ice-cold acetonitrile. Samples were vortex mixed after addition of formic acid and acetonitrile and then centrifuged at 10,000×g for 5 min. Extract supernatants were separated using a Waters ACQUITY UPLC® (Waters Corporation) fitted with a Waters ACQUITY UPLC® BEH C18 Column ( 130Å; 1.7μm; 2.1mm×50mm ). Detection was performed using a Waters Quattro Premier™ XE tandem quadrupole mass spectrometer in negative ionization mode. Stable isotopes of PFOA ( C313 , MPFOA; Wellington Laboratories) or GenX ( C313 , M3HFPO-DA; Wellington Laboratories) were used as internal standards for quantification of vehicle control samples (run against a nine-point calibration curve of 0–100 ng/mL ) and experimental samples (run against a nine-point calibration curve of 200–20,000 ng/mL ). Vehicle control and dosed animal samples were quantified for both PFOA and GenX using respective isotope-labeled chemicals and calibration curves.

SMILES: N.O=C(O)C(F)(OC(F)(F)C(F)(F)C(F)(F)F)C(F)(F)F (centres unmarked) [GenX, ammonium 2,3,3,3-tetrafluoro-2-(heptafluoropropoxy)propanoate]
- Embryo:Placental Weight Ratio, adjusted estimate (95% CI) (embryo–placenta unit; E11.5, 2 mg/kg/d): 1.22 (0.66, 1.78)
- Embryo:Placental Weight Ratio, adjusted estimate (95% CI) (embryo–placenta unit; E11.5, 10 mg/kg/d): 1.08 (0.52, 1.64)
- Embryo:Placental Weight Ratio, adjusted estimate (95% CI) (embryo–placenta unit; E17.5, 2 mg/kg/d): 10.6 (7.5, 13.7)
- Shift in embryo weight (embryo–placenta unit; E17.5, 2 mg/kg/d): -0.009 g
- Embryo:Placental Weight Ratio, adjusted estimate (95% CI) (embryo–placenta unit; E17.5, 10 mg/kg/d): 9.5 (6.4, 12.7)
- Estimated increase in placental weight relative to controls (embryo–placenta unit; E17.5, 10 mg/kg/d): 15.5 mg
- Shift in embryo weight (embryo–placenta unit; E17.5, 10 mg/kg/d): -0.042 g
- GenX accumulation in liver, fold lower than PFOA ([1]; 2 mg/kg GenX vs 1 mg/kg PFOA, E11.5): 7.6 fold
- GenX accumulation in liver, fold lower than PFOA ([1]; 2 mg/kg GenX vs 1 mg/kg PFOA, E17.5): 39.7 fold
- GenX accumulation in liver, fold lower than PFOA ([1]; 10 mg/kg GenX vs 5 mg/kg PFOA, E17.5 (first mention)): 8.9 fold
- GenX accumulation in liver, fold lower than PFOA ([1]; 10 mg/kg GenX vs 5 mg/kg PFOA, E17.5 (second mention)): 11.2 fold
